Experimental data taken from PubChem BioAssay AID540263 (National Center for Advancing Translational Sciences (NCATS), 2011).
In all, about 340,000 compounds went through this assay and about 100 (0.029%) were called active. About 8% were inconclusive and are not listed. Only a selection was taken, and actives are over-represented in it overall. Values without a mark were called inactive. Calls come from the whole dose curve.

Protein sequences, listed by entry. Tags and fused reporters are not part of them.
UniProt Q14974, whole entry, looked up: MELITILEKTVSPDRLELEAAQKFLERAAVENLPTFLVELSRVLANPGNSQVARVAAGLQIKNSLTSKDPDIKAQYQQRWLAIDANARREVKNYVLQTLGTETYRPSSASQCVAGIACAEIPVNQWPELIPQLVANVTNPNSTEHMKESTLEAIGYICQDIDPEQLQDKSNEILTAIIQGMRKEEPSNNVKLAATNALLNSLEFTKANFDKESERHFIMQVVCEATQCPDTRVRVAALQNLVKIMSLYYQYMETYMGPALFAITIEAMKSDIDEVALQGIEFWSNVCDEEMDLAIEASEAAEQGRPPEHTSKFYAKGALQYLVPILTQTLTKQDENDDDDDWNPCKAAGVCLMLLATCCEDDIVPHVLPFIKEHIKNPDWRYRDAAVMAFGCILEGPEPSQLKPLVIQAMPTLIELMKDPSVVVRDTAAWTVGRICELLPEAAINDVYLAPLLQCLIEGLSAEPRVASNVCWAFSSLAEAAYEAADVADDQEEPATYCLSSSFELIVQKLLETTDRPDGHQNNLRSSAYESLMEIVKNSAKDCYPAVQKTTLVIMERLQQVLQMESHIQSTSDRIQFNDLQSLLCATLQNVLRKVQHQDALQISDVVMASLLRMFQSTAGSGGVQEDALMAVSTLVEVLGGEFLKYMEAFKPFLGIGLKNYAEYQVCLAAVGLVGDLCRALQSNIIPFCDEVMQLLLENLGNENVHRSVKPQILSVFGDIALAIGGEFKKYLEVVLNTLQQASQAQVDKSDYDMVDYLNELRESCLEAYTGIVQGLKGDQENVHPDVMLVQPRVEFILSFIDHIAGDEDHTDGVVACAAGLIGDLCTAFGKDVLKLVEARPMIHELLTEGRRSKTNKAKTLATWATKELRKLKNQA

molecular target: Importin subunit beta-1 (Homo sapiens) (UniProt Q14974); assay: qHTS Assay for Inhibitors of Rango (Ran-regulated importin-beta cargo) - Importin beta complex formation; conditions: Rango CFP/YFP FRET sensor + importin beta, 45 min; series mostly up to 92.2 µM; inhibition of complex formation: at the top concentration; note: nearly all actives have a fitted effect of over 15% in size;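 for inhibition of complex formation: 0% = DMSO wells and 100% = buffer wells lacking importin beta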
Text: NIH Molecular Libraries Probe Production Centers Network [MLPCN] NIH Chemical Genomics Center [NCGC] MLPCN Grant: R03 MH090808-01A1 Assay Submitter (PI): Petr Kalab NCGC Assay Overview: The small GTPase Ran regulates transport of macromolecules between the nucleus and the cytoplasm (nuclear transport) and has important functions in mitotic spindle assembly, nuclear envelope (NE) formation and nuclear pore complex (NPC) assembly. RanGTP gradient is thought to promote spindle assembly by providing a spatial clue to microtubule nucleation and Aurora A activation. Because the localized release and binding of importin alpha cargo relays this spatial clue to SAFs, inhibitors of the Rango - importin beta complex can then be used in further understanding their role in cell cycle specifically in mitosis progression. […] Activation of Aurora A has been linked to different types of cancer and a number of Aurora kinase inhibitors are being developed as potential canter therapeutics therefore, identified inhibitors of this complex could be developed into potential anti-mitotic probes for cancer treatment. Purified recombinant proteins Rango and importin beta were provided by the assay submitter. The assay used a fluorescence resonance energy transfer (FRET) Rango biosensor that contains the IBB of human snurportin 1 flanked by yellow fluorescent protein (EYFP) at the amino terminus and cerulean CFP10 at the carboxy terminus. […] Inhibitors will therefore be identified based on the ability to interfere with the FRET signal decrease. DMSO treated and no importin beta (buffer only) wells were used as negative and positive controls respectively. FRET readings were obtained at two time points. FRET reading prior to importin beta addition (pre-read) were used flag potential compound interference; FRET reading after importin beta addition (post-read) were used to identify inhibitors using the FRET ratio parameter.
NCGC Assay Protocol Summary: Two and a half uL/well of Rango-buffer solution (50 nM Rango, 1x PBS, 1mM DTT, 0.02% Tween-20, 0.1% BSA final concentrations) was dispensed into 1536-well assay plates (Greiner, solid black medium-binding plates) with Aurora Discovery BioRAPTR Flying Reagent Dispenser (FRD; Beckton-Dickenson). Compound solution (23 nL) was transferred to the assay plate using Kalypsys pin tool equipped with a 1536-pin tool and incubated at room temperature for 5 min followed by a FRET pre-read using the PerkinElmer Envision plate reader. Two and a half uL/well of Importin beta - buffer solution (0.125 microM importin beta, 1x PBS, 1mM DTT, 0.02% Tween-20, 0.1% BSA final concentrations) were then added and incubated at room temperature giving a final reaction volume of 5uL. After 45min FRET post-read was obtained via the Envision plate reader using the same optics and settings as the pre-read (CFP/YFP optimized dual optical module D450/D505; excitation mirror CFP 430/24 nm; and emission filters CFP 486/10 nm and YFP 530/10 nm).
Potency is the fitted concentration of half-maximal effect; tags give direction and shape of the fitted curve.

Row | SMILES | inhibition of complex formation | Potency
1 | C#CCOCCOCCOCCNc1nc(N2CCN(C(=O)Cn3cc(CCO)nn3)CC2)nc(N2CCN(C(=O)[C@H](CCCCN)n3cc(CCCC)nn3)CC2)n1 | 2.5% | 
2 | O=S1(=O)CCOC[C@H](Cc2ccccc2)N1Cc1ccccc1Br | 1.72% | 
3 | Cc1nc2ccccc2c(C(=O)O)c1-c1ccccn1 | -3.52% | 
4 | CC(C)(C)Nc1nc(-c2ccccn2)nc2ccccc12 |  | 58 µM (active)
5 | Cc1ccc(Oc2nc(-c3ccccn3)nc3ccccc23)cc1 | 1.95% | 
6 | COc1cc2c(cc1CNC[C@H]1O[C@@H](n3cnc(C(N)=O)n3)[C@H](O)[C@@H]1O)OCO2 | 0.344% | 
7 | NC1=NOC(=O)C1C1CCCCC1 (centres undefined) | 2.74% | 
8 | NC(=S)NN=C1CCCC(C(F)(F)F)C1 (centres undefined) | 0.299% | 
9 | O=C(OC12CC3CC(CC(C3)C1)C2)c1ccc(NCc2cc(O)ccc2O)cc1 | 0.607% | 
10 | O=C(O)c1ccc([N+](=O)[O-])cc1Sc1ccsc1 | -1.6% | 
11 | CN(CCc1ccccc1)C(=O)c1cccc(NC(=O)Cc2cccc(NC(=O)C3CCCN(C(=O)C4CCC4)C3)c2)c1 (centres undefined) | 1.49% | 
12 | CN(C(=O)c1cccc(NC(=O)Cc2ccc(NC(=O)C3CCCN(C(=O)C4CC4)C3)cc2)c1)C1CC1 (centres undefined) | 5.33% | 
13 | C=CCN1C=C(C(=O)c2ccccc2)C(=O)CC1 | 1.13% | 
14 | Cc1nc(Nc2ccccc2C)c2cnn(C)c2n1 | 0.799% | 
15 | O=C(c1cccc(S(=O)(=O)N2CCCCCC2)c1)N1CCN(Cc2ccccc2)CC1 | 2.11% | 
16 | C=CCOC(=O)N1CCC2CC1c1cc(-c3ccc(OC)cc3)ccc12 (centres undefined) | -2.77% | 
17 | O=C(NCCc1ccccc1)c1c[nH]c2ccc(F)cc2c1=O | -0.0045% | 
18 | COc1ccc(CCC(=O)Nc2ccc(Cl)c(S(=O)(=O)N3CCOCC3)c2)cc1OC | -0.735% | 
19 | O=C(CNC(=O)c1cc(S(=O)(=O)N2CCOCC2)ccc1N1CCCC1)Nc1ccc(F)c(F)c1 | 0.285% | 
20 | Cc1ccc(NC(=O)C(C)OC(=O)C2CC3CCCC(C2)C3=O)cc1S(=O)(=O)N1CCOCC1 (centres undefined) | -0.445% | 
21 | Cn1cc(C2OC(=O)c3ccccc32)c2ccccc21 (centres undefined) | -2.51% | 
22 | O=C(Nc1ccc(S(=O)(=O)N2CCOCC2)cc1)C1CCN(S(=O)(=O)c2ccc(Cl)cc2)CC1 | -0.232% | 
23 | CC1C(C)N(C(=O)CCl)c2ccccc2N1C(=O)CCl (centres undefined) | 2.49% | 
24 | NS(=O)(=O)c1ccc(CCNC(=O)c2ccc(Cl)c(S(=O)(=O)N3CCCCCC3)c2)cc1 | -0.982% | 
25 | O=C1c2ccccc2C(=O)N1CCCCCCN1C(=O)c2ccccc2C1=O | -4.66% | 
26 | CC(C)C[C@H]1CN([C@@H](CC(C)C)CN2CCC[C@@H]2CN2C(=O)C(=O)NC[C@@H]2Cc2ccccc2)C(=O)C(=O)N1CCc1ccccc1 | -4.53% | 
27 | COc1ccc(-c2ccc3c(c2)C2CC3CCN2CCC#N)cc1 (centres undefined) | -0.906% | 

Row | SMILES | inhibition of complex formation | Potency
28 | CN(C)C(CNC(=O)c1cc2ccccc2o1)c1ccccc1 (centres undefined) | 0.201% | 
29 | CCCCNC1(C#N)CCN(Cc2ccccc2)CC1 | -0.281% | 
30 | NC(=O)C1(Nc2ccccc2Cl)CCCC1 | 1.43% | 
31 | COc1ccc(S(=O)(=O)N2CCc3ccccc32)cc1C(=O)Nc1cc(S(C)(=O)=O)ccc1Cl | 1.2% | 
32 | Cc1cc(NC(=O)C(C)SCC(=O)Nc2cccc(S(=O)(=O)N3CCCCCC3)c2)no1 (centres undefined) | -13.4% | 
33 | NC(=O)c1ncn([C@@H]2O[C@H](CN=C3NS(=O)(=O)c4ccccc43)[C@@H](O)[C@H]2O)n1 | 0.0699% | 
34 | Cc1cc([N+](=O)[O-])c(=O)[nH]c1C | -4.18% | 
35 | O=C1OC(Cc2ccccc2)C(c2ccccc2)C1=O (centres undefined) | 1.66% | 
36 | O=C(Nc1ccn(CCCNCc2ccc3[nH]ccc3c2)c(=O)n1)OCc1ccccc1 | 1% | 
37 | CCCCNCCS(=O)(=O)NCc1ccccc1 | -2.8% | 
38 | CNc1nc(=O)n(C2CCCO2)cc1C (centres undefined) | -3.1% | 
39 | S=C(Nc1ccccc1)Nc1ccc2ccccc2c1 | -0.599% | 
40 | COc1ccc(S(=O)(=O)N2C[C@H]3CON(C)[C@H]3C[C@H]2c2cccc(Br)c2)cc1 | 1.49% | 
41 | Cc1ccc(-c2csc(C(C#N)=C(O)CN3CCN(C(=O)c4ccco4)CC3)n2)cc1 | -1.82% | 
42 | Cc1ccc(S(=O)(=O)N2CCC(C(=O)N3CCCCCCC3)CC2)cc1 | 4.24% | 
43 | CCCCC(=O)NC(c1ccc(OC)c(OC)c1)c1ccc2cccnc2c1O (centres undefined) | 1.17% | 
44 | CCC1(C)COC(c2ccc(OC)c(OC)c2)OC1 (centres undefined) | 0.785% | 
45 | CCC(C)C1(C2CCCC2)NC(=O)NC1=O (centres undefined) | -3.68% | 
46 | Cc1nn(-c2ccc(F)cc2)c(Cl)c1/C=C(/CCC(=O)O)c1nc2ccccc2s1 | -3.7% | 
47 | COc1cc(OC)c(C(=O)NNC(=O)c2ccc(NS(=O)(=O)c3cccs3)cc2)cc1OC | -0.772% | 
48 | CC(=O)OCC1(O)CC23CCC4c5ccoc5CCC4(C)C2CCC1C3 (centres undefined) | 0.228% | 
49 | CC1CCCN(C(=O)Cn2c(=O)oc3cc(S(=O)(=O)N4CCCCC4C)ccc32)C1 (centres undefined) | -0.022% | 
50 | CCCCN(C(=O)CSCc1ccc(C)cc1)c1c(N)n(Cc2ccccc2)c(=O)[nH]c1=O | -2.96% | 
51 | OCC1(CO)CC2(C1)CC(CO)(CO)C2 | 2.26% | 
52 | Cc1ccc(S(=O)(=O)CC(=O)Nc2nnc(C)s2)cc1 |  | 65.1 µM (active)
53 | Cc1ccc(S(=O)(=O)CC(=O)Nc2sc(C)c(C)c2C(N)=O)cc1 | -2.87% | 
54 | Cc1ccc(S(=O)(=O)CCC(=O)Nc2nnc(CC(C)C)s2)cc1 | -0.478% | 
